This experiment addresses CCK Receptor (Rattus norvegicus, UniProt P30551). Kind of experiment: Specificity test, CCK-stimulated amylase secretion of rat pancreatic acinar cells after wash. As to conditions: no antagonist; CCK 0.1 nM.

The chains behind the UniProt entries cited, without tags or fusion partners.
UniProt P30551, whole entry: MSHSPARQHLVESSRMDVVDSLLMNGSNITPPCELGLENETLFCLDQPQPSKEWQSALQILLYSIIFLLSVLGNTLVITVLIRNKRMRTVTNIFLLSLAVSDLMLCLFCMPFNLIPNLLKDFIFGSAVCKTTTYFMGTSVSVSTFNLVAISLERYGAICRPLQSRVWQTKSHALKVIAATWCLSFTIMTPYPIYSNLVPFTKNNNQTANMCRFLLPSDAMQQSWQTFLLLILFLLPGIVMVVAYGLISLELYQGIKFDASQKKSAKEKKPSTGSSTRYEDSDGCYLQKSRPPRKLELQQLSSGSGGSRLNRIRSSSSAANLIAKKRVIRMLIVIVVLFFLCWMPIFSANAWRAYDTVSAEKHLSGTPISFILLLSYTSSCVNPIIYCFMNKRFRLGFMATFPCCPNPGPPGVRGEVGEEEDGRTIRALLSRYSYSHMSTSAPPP

With cholecystokinin [CCK], the “Amylase Release, Post-Wash 1 Min” value came out at 12.6 ± 1.7 % Total; the “Amylase Release, Post-Wash 30 Min” value came to 8.2 ± 1.0 % Total; the “Amylase Release, Post-Wash 60 Min” value is listed as 9.3 ± 2.0 % Total; the “Amylase Release, Secretion (Wash)” value was 16.4 ± 1.9 % Total.

The record behind these values is US5620955A, “Bombesin receptor antagonists and uses thereof” (Peptide Technologies Corporation, priority 1993, dated 1997).
